Chains of the proteins cited; added tags and fusions are not shown.
UniProt Q62848, whole entry, looked up: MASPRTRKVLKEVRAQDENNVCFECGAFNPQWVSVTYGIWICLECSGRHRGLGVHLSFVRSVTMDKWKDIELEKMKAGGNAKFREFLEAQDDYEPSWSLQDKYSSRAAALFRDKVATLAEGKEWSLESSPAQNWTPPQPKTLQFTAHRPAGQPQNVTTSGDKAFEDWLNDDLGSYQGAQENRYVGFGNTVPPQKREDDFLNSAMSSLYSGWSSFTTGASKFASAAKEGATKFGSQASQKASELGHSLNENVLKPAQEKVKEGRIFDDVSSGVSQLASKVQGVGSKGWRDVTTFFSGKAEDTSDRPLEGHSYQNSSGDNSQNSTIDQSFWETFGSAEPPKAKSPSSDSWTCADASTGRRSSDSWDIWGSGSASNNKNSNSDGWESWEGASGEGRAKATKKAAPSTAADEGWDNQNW

The entries are a selection whose mix differs from that of the whole data set. Activity calls are given as the source filed them.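 How the source made its calls: active means inhibition above a per-plate limit, mean inhibition of low control wells plus 3 SD (cut at about 25% in these data); inactive means the rest.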
What follows are compounds tested against ADP-ribosylation factor GTPase-activating protein 1 (Rattus norvegicus) (UniProt Q62848) (assay: inhibitors of rat ARFGAP1 GAP activity, primary screen, biochemical, fluorescence polarization, GDP tracer (AID 651572;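 further: 0% = DMSO wells with enzyme and 100% = wells lacking Arfgap1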)). Conditions: Arfgap1-stimulated ARF1 GTP hydrolysis, GDP FP detection; at 16.5 µM; hits give high values.
How it was run: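 System: truncated rat Arfgap1 GAP domain / Benchmarks: high control wells lacking Arfgap1, low control full reaction with DMSO / Times: compound-enzyme preincubation 20 min, reaction 120 min, detection 60 min, 25 °C / Repeats: one replicate per compound / Also added: human ARF1(Δ1-17)-GTP substrate / Measured by: Tracer-displacement fluorescence polarization with EDTA stop, 620/688 nm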
For `COc1ccc(N)c([N+](=O)[O-])c1[N+](=O)[O-]`, the inhibition was inactive: 4.99%.
`Nc1ccc(CCCCOc2ccccc2)cc1` was tested, and the inhibition was inactive: 9.38%.
For `CN(C)C1(CNC(=O)c2ccc(Cl)c(S(N)(=O)=O)c2)CCCCC1`, the inhibition was inactive: 1.8%.
For `O=P(Nc1ccccn1)(c1ccc(Br)cc1)c1ccc(Br)cc1`, the inhibition was inactive: 5.12%.
With `O=P(Nc1nc2ccccc2s1)(c1ccccc1)c1ccccc1` the inhibition was inactive: 4.09%.
`C[C@H]1OP(=O)(Oc2ccccc2)[C@H](O)[C@H](O)[C@H]1N=[N+]=[N-]` (stereo partly specified) was tested, and the inhibition was inactive: 6.38%.
With `CC(=O)NC(SC(=S)N(C)C)C(Cl)(Cl)Cl` (stereo unspecified) the inhibition was inactive: -2.78%.
In the case of `O=[N+]([O-])c1ncn(CCn2cnc([N+](=O)[O-])n2)n1`, the inhibition was inactive: -0.31%.
In the case of `O=[As](O)(c1ccccc1)c1ccc(O)cc1`, the inhibition was inactive: -2.95%.
`C/C(N)=N\P(=O)(OCc1ccccc1)OCc1ccccc1` was tested, and the inhibition was inactive: -4.91%.
`C(Cc1nn[nH]n1)Cc1nn[nH]n1` was tested, and the inhibition was inactive: 3.05%.
`Nc1ccc([As](=O)(O)c2ccc([N+](=O)[O-])cc2)cc1` was tested, and the inhibition was inactive: -4.81%.
In the case of `O=C(OC1CN2CCC1CC2)c1cccc(Cl)c1` (stereo unspecified), the inhibition was inactive: 1.2%.
`O=P(Nc1nccs1)(c1ccccc1)c1ccccc1` was tested, and the inhibition was inactive: -0.37%.
With `CC(C)C(=O)NC(Sc1ccccc1)C(Cl)(Cl)Cl` (stereo unspecified) the inhibition was inactive: -5.03%.
With `c1nnnn1CCn1cnnn1` the inhibition was inactive: 1.52%.
In the case of `O=P1(Nc2nc3ccc(Cl)cc3s2)COc2ccccc2O1` (stereo unspecified), the inhibition was inactive: -17.4%.
In the case of `CCOc1ccc(C2=NCC(CBr)S2)cc1` (stereo unspecified), the inhibition was inactive: 13.2%.
In the case of `CCc1cc(O)c([N+](=O)[O-])c(C)c1[N+](=O)[O-]`, the inhibition was inactive: -8.94%.
In the case of `CC(C)(C)C(=O)NC(Sc1ccccc1)C(Cl)(Cl)Cl` (stereo unspecified), the inhibition was inactive: 2.92%.
With `CC(=O)c1ccc(N2CC2c2ccncc2)cc1` (stereo unspecified) the inhibition was inactive: -1.07%.
In the case of `N#C/C(=C\c1ccc(N(CCBr)CCBr)cc1)C(N)=O`, the inhibition was inactive: -6.53%.
With `COC(=O)C1(C)COP(=O)(NCc2ccccc2)OC1` (stereo unspecified) the inhibition was inactive: -7.61%.
`Cc1ccccc1CN(C)C(=O)COC(=O)C(O)(c1ccccc1)c1ccccc1` was tested, and the inhibition was inactive: -5.98%.
For `C[C@H]1OP(=O)(Oc2ccccc2)C[C@@H]2O[C@@H]21` (stereo partly specified), the inhibition was inactive: -7.25%.
`C[C@@H]1C=CCP(=O)(Oc2ccccc2)O1` (stereo partly specified) was tested, and the inhibition was inactive: 2.41%.
`CC(=O)Nc1ccc([As](=O)(O)O)c(O)c1` was tested, and the inhibition was inactive: -10.6%.
With `CC(=O)Nc1ccc(Oc2c([N+](=O)[O-])cc([N+](=O)[O-])cc2[N+](=O)[O-])cc1` the inhibition was inactive: -5.43%.
`O=C(NC1CCS(=O)(=O)C1)NP(=S)(Oc1ccccc1)Oc1ccccc1` (stereo unspecified) was tested, and the inhibition was inactive: -1.94%.
In the case of `CCNC(=S)/N=C(\N)N[N+](=O)[O-]`, the inhibition was inactive: 4.85%.
In the case of `c1ccc(-c2nn[nH]n2)c(-c2nn[nH]n2)c1`, the inhibition was inactive: -2.29%.
With `Cc1ccc(NP(=O)(Oc2cccc(C)c2)Oc2cccc(C)c2)nc1` the inhibition was inactive: 0.4%.
In the case of `O=P1(N(CCCl)CCCl)OCCC2CCCCN21` (stereo unspecified), the inhibition was inactive: 4.17%.
`COC(=O)c1cc2c(s1)N=C(c1ccccc1)N(C)P2(=O)N1CCOCC1` (stereo unspecified) was tested, and the inhibition was inactive: -0.47%.
With `CC(=O)NC(SC(=S)N(CC(C)C)CC(C)C)C(Cl)(Cl)Cl` (stereo unspecified) the inhibition was inactive: 1.63%.
In the case of `Cc1ccc(OP(=O)(Nc2ccccn2)Oc2ccc(C)cc2)cc1`, the inhibition was inactive: -4.24%.
`O=C(OC1CN2CCC1CC2)c1ccccc1` (stereo unspecified) was tested, and the inhibition was inactive: -6.06%.
In the case of `CCC(=O)N1C2C3N(C(=O)CC)C1C1N(C(=O)CC)C(C(N1C(=O)CC)N3C(=O)CC)N2C(=O)CC`, the inhibition was inactive: 0.2%.
In the case of `CC(NC(=O)COC(=O)C(O)(c1ccccc1)c1ccccc1)c1ccccc1` (stereo unspecified), the inhibition was inactive: 11.1%.
`Cc1ccccc1OP(=O)(Nc1ccccn1)Oc1ccccc1C` was tested, and the inhibition was inactive: 1.91%.
For `O=c1c2cc([N+](=O)[O-])ccc2[nH]c2c([N+](=O)[O-])cc([N+](=O)[O-])cc12`, the inhibition was inactive: 3.04%.
With `CN(C)C(=O)Oc1noc2ccccc12` the inhibition was inactive: -8.08%.
For `CC(=O)Nc1ccc([As](=O)(O)O)cc1`, the inhibition was inactive: -0.16%.
In the case of `O=C(O)c1ccccc1[As](=O)(O)O`, the inhibition was inactive: -5.88%.
With `CCCC1OP(N)(=O)OCC1CC` (stereo unspecified) the inhibition was inactive: 2.55%.
For `O=P(Nc1nc2ccc(Cl)cc2s1)(c1ccccc1)c1ccccc1`, the inhibition was inactive: -4.22%.
For `CN(C)P(=O)(N(C)C)n1c(Nc2ccccc2)nnc1-c1ccccc1`, the inhibition was inactive: 2.32%.
In the case of `Cc1cc(SC(NC(=O)c2ccc(F)cc2)C(Cl)(Cl)Cl)ncn1` (stereo unspecified), the inhibition was inactive: 7.32%.
In the case of `CCOP(=O)(Nc1ccccc1)OCC`, the inhibition was inactive: 3.7%.
In the case of `CN(C(=O)Cc1ccc(Cl)c(Cl)c1)[C@H]1CCCC[C@@H]1N1CCCC1`, the inhibition was inactive: 7.08%.
For `Cc1ccc(NP(=O)(Oc2ccccc2F)Oc2ccccc2F)nc1`, the inhibition was inactive: 8.29%.
`CCn1c(=O)n(C2CCN(CC3CCCCCCC3)C[C@H]2CO)c2ccccc21` (stereo partly specified) was tested, and the inhibition was inactive: -0.31%.
`CN(C(=O)Cc1ccccc1)C1CC[C@@]2(CCCO2)C[C@@H]1N1CCCC1` (stereo partly specified) was tested, and the inhibition was inactive: 5.62%.
With `CCN(N=Nc1nonc1N)c1nonc1N` the inhibition was inactive: 5.14%.
With `Nc1cccc2ccc([As](=O)(O)O)cc12` the inhibition was inactive: -3.19%.
With `NC(=O)c1cc([N+](=O)[O-])cc([N+](=O)[O-])c1N` the inhibition was inactive: -2.84%.
For `CN(C(=O)Cc1ccc(Cl)c(Cl)c1)[C@H]1CCCC[C@H]1N1CCCC1`, the inhibition was inactive: 5.33%.
With `Cc1ccc(N/C(=N/P(=O)(N2CCOCC2)N2CCOCC2)N2CCOCC2)cc1` the inhibition was inactive: -4.94%.
`COc1ccccc1OP(=O)(Nc1ccc(C)cn1)Oc1ccccc1OC` was tested, and the inhibition was inactive: 1.04%.
For `Cc1ccc(OP(=O)(Nc2nccs2)Oc2ccc(C)cc2)cc1`, the inhibition was inactive: 4.6%.
With `CN1CCCC(OC(=O)C(c2ccccc2)c2ccccc2)C1` (stereo unspecified) the inhibition was inactive: -2.21%.
`Clc1ccc(Cl)c(NC2=NCC(CBr)S2)c1` (stereo unspecified) was tested, and the inhibition was inactive: 2.72%.
With `Nc1cc(N)c2nonc2c1[N+](=O)[O-]` the inhibition was inactive: -1.11%.
With `CC(C)CC(=O)NC(Sc1ccc(Cl)cc1)C(Cl)(Cl)Cl` (stereo unspecified) the inhibition was inactive: 2.58%.
`Oc1ccccc1CNc1ccccn1` was tested, and the inhibition was inactive: 8.1%.
In the case of `O=C(NC(Sc1ccncn1)C(Cl)(Cl)Cl)c1ccccc1` (stereo unspecified), the inhibition was inactive: 2.31%.
In the case of `COc1ccc(C2=NCC(CBr)S2)cc1` (stereo unspecified), the inhibition was inactive: -2.27%.
In the case of `CC(=O)N1C2C3N(C(C)=O)C1C1N(C(C)=O)C(C(N1C(C)=O)N3C(C)=O)N2C(C)=O`, the inhibition was inactive: 0.48%.
With `O=[N+]([O-])c1cccc2n[nH]nc12` the inhibition was inactive: 9.75%.
For `Cc1ccc(NP(=O)(Oc2ccccc2)Oc2ccccc2)nc1`, the inhibition was inactive: -7.38%.
`O=[N+]([O-])c1cc([N+](=O)[O-])c(CCNc2ccccc2)c([N+](=O)[O-])c1` was tested, and the inhibition was inactive: 2.41%.
`CCc1nc2c(n1)c1c(non1O)c1c2no[n+]1[O-]` was tested, and the inhibition was inactive: -4.98%.
For `Nc1ccc([As](=O)(O)c2ccc(N)cc2)cc1`, the inhibition was inactive: -5.99%.
In the case of `C[N+]1=C2C=CC=CC=C2SC12C([N+](=O)[O-])=CC([N+](=O)[O-])=C[C-]2[N+](=O)[O-]` (stereo unspecified), the inhibition was inactive: 6.99%.
With `CCN(/C(=N/P(=O)(N1CCOCC1)N1CCOCC1)N1CCOCC1)c1ccc(OC)cc1` the inhibition was inactive: 7.11%.
For `CC(C)c1nc(Nc2ccccc2)n(P(=O)(N(C)C)N(C)C)n1`, the inhibition was inactive: 3.15%.
For `CC(C)=N/N=C(\N)N[N+](=O)[O-]`, the inhibition was inactive: 3.67%.
For `CN(C)C(=O)OCCc1n(C)cc[n+]1C`, the inhibition was inactive: -9.85%.
With `CC1CCN(C(=O)Oc2c(Cl)cc(Cl)c3cccnc23)CC1` the inhibition was inactive: -0.91%.
With `c1cc(-c2nn[nH]n2)ccc1-c1nn[nH]n1` the inhibition was inactive: 3.38%.
`O=P1(N(CCCl)CCCl)OCCCS1` (stereo unspecified) was tested, and the inhibition was inactive: 11.3%.
For `O=C(Nc1cc([As](=O)(O)O)ccc1O)c1ccccc1`, the inhibition was inactive: -9.03%.
In the case of `CC(C)(C)C(=O)NC(Sc1ccncn1)C(Cl)(Cl)Cl` (stereo unspecified), the inhibition was inactive: 3.5%.
With `O=[N+]([O-])c1ncn(CCn2ncnc2[N+](=O)[O-])n1` the inhibition was inactive: -5.81%.
With `COC(=O)C1(C)COP(=O)(Nc2ccccc2)OC1` (stereo unspecified) the inhibition was inactive: -5.32%.
With `O=[N+]([O-])c1cccc(NC2=NCC(CBr)S2)c1` (stereo unspecified) the inhibition was inactive: -4.49%.
With `O=C(O)CNc1ccc([As](=O)(O)O)cc1` the inhibition was inactive: 11%.
In the case of `CC1CCNP(=O)(N(CCCl)CCCl)O1` (stereo unspecified), the inhibition was inactive: -6.13%.
For `O=C(O)C(O)c1ccc(N(CCCl)CCCl)cc1` (stereo unspecified), the inhibition was inactive: -5%.
With `CCOC(=O)Nc1ccc([As](=O)(O)O)c(O)c1` the inhibition was inactive: -9.62%.
`CCCCOc1ccc(C(=O)NCC2(N3CCCCC3)CCCCC2)cc1OC` was tested, and the inhibition was inactive: -4.2%.
`Cc1cc(SC(NC(=O)c2ccccc2)C(Cl)(Cl)Cl)nc(C(C)C)n1` (stereo unspecified) was tested, and the inhibition was inactive: 11.9%.
For `COP(=O)(OC)N1CC1c1ccccc1` (stereo unspecified), the inhibition was inactive: 18.7%.
With `CCOC(=O)Nc1cccc([As](=O)(O)O)c1` the inhibition was inactive: -0.95%.
With `O=[N+]([O-])c1ccc(Nc2ccc(Oc3ccc([N+](=O)[O-])cc3[N+](=O)[O-])cc2)c([N+](=O)[O-])c1` the inhibition was inactive: -2.74%.
With `Cc1cc(SC(NC=O)C(Cl)(Cl)Cl)ncn1` (stereo unspecified) the inhibition was inactive: -2.31%.
For `O=P(Nc1ccccn1)(c1cccc2ccccc12)c1cccc2ccccc12`, the inhibition was inactive: 2.21%.
With `COP1(=S)c2c(C)nn(CCC#N)c2N=C(c2ccc(F)cc2)N1C` (stereo unspecified) the inhibition was inactive: 1.51%.
With `COC(=O)C1(C)COP(=O)(N2CCCC2)OC1` (stereo unspecified) the inhibition was inactive: 0.63%.
With `O=C(COc1ccccc1)OC1CN2CCC1CC2` (stereo unspecified) the inhibition was inactive: 7.73%.
With `O=C(Nc1ccncc1[N+](=O)[O-])c1ccc([N+](=O)[O-])cc1[N+](=O)[O-]` the inhibition was inactive: -6.76%.

— PubChem BioAssay AID651572 (The Scripps Research Institute Molecular Screening Center, 2012)
